Data as given in PubChem BioAssay AID588335 (The Scripps Research Institute Molecular Screening Center, 2011).
The entries are a selection whose mix differs from that of the whole data set. Some results for these compounds are left out of this collection, so the calls shown say nothing about other tests. Calls of active or inactive are those of the source. Rule as the data show it: active = inhibition above about 30%; inactive = the rest.

Test: GDH-TPI coupling enzyme inhibitors, primary screen, artefact control for M. tuberculosis FBA inhibitor project, biochemical, absorbance, full deck (AID 588335);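 also: 0% = DMSO wells and 100% = wells lacking the enzyme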
Conditions: GDH-TPI coupled enzyme counterscreen, NADH absorbance; at 4.8 µM; hits give high values

Structure (SMILES)	inhibition
COc1ccc(C(=O)NCC2(N(C)C)CCCCC2)cc1	inactive: -9.87%
Cc1cc(C(=O)NCC2(N3CCCCC3)CCCCC2)ccc1[N+](=O)[O-]	inactive: 1.82%
CCN1CCCC(OC(=O)C2(O)c3ccccc3C=Cc3ccccc32)C1 (stereo unspecified)	inactive: -1.5%
O=C(NCC1(N2CCCCC2)CCCCC1)c1cccc(Br)c1	inactive: 2.26%
C=CCN1CCN(CCOC(=O)C(O)(c2ccccc2)c2ccccc2)CC1	inactive: 3.88%
O=C(NCC1(N2CCCCC2)CCCCC1)c1cc(F)c(F)cc1Cl	inactive: -3.73%
Cc1ccccc1C(=O)NCC1(N2CCCCC2)CCCCC1	inactive: -4.49%
CN(C)C1CCCC1OC(=O)C(O)(c1ccccc1)c1ccccc1 (stereo unspecified)	inactive: 5.62%
CN(C)c1ccc(C(=O)NCC2(N(C)C)CCCCC2)cc1	inactive: 5.71%
Cc1ccc(C(=O)NCC2(N3CCCCC3)CCCCC2)cc1	inactive: -8.02%
CCN(CC)CC(C)C(C)OC(=O)C(O)(c1ccccc1)c1ccccc1 (stereo unspecified)	inactive: -1.23%
COc1cc(SC)ccc1C(=O)NCC1(N(C)C)CCCCC1	inactive: 7%
CC(C)N1C(=O)CC2(CCN(CCOC(=O)C(O)(c3ccccc3)c3ccccc3)CC2)C1=O	inactive: -7.06%
CN1[C@@H]2CC[C@H]1CC(OC(=O)C(O)(c1ccccc1)c1ccccc1)C2 (stereo partly specified)	inactive: 0.42%
O=C(NCC1(N2CCCCC2)CCCCC1)c1cc([N+](=O)[O-])ccc1Cl	inactive: 1.88%
CC(C)Oc1ccc(C(=O)NCC2(N(C)C)CCCCC2)cc1	inactive: 2.54%
O=C(OCCN1CCCC1)C(O)(c1ccccc1)c1ccccc1	inactive: 3.88%
CN(C)c1cccc(C(=O)NCC2(N(C)C)CCCCC2)c1	inactive: 3.36%
C=C(C)C#CC(O)(C(=O)OC1CCN(C)CC1)c1ccccc1 (stereo unspecified)	inactive: 9.96%
COc1ccc(Br)c(C(=O)NCC2(N3CCCCC3)CCCCC2)c1	inactive: 13.6%
O=C(OC1CN2CCC1CC2)C(CO)(c1ccccc1)c1ccccc1 (stereo unspecified)	inactive: -5.99%
O=C(NCC1(N2CCCCC2)CCCCC1)c1cccc(Cl)c1	inactive: 3.72%
COc1cccc(C(=O)NCC2(N3CCCCC3)CCCCC2)c1	inactive: 15.8%
COc1ccc(Cl)cc1C(=O)NCC1(N(C)C)CCCCC1	inactive: -7.62%
COc1cc(C(=O)NCC2(N(C)C)CCCCC2)c([N+](=O)[O-])cc1OC	inactive: 18%
CN(C)C1(CNC(=O)c2ccc(Br)cc2)CCCCC1	inactive: -1%
